Source: PubChem BioAssay AID504523 (Broad Institute, 2011)
The list shows a part of the results, in another mix than the full data. Activity calls are given as the source filed them. Rule as the data show it: active = inhibition above about 12%; inconclusive = no clear call, values can overlap the other calls; inactive = below about 7.3%.

Chains of the proteins cited; added tags and fusions are not shown.
UniProt Q14145, whole entry, looked up: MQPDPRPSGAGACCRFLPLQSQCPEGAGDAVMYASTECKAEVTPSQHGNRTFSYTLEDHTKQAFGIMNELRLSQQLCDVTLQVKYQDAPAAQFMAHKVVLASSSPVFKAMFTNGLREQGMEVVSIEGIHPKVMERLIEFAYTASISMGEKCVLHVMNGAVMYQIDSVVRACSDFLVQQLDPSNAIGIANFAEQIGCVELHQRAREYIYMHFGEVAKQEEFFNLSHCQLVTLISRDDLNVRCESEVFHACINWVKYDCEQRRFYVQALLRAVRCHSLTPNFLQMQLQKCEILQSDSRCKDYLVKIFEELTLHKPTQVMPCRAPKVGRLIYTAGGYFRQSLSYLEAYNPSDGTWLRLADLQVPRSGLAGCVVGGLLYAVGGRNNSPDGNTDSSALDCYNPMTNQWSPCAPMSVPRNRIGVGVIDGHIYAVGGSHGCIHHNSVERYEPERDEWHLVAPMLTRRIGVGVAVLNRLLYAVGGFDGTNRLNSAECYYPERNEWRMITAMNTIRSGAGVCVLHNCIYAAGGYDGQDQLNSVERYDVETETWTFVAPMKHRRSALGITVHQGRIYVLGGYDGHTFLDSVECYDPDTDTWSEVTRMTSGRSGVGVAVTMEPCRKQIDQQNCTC

What follows are compounds tested against Kelch-like ECH-associated protein 1 (Homo sapiens) (UniProt Q14145) (assay: disruptors of Keap1 binding to Nrf2 – biochemical, fluorescence polarization, single point, primary screen (AID 504523;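 also: human Keap1 Kelch domain with fluorescein labeled Nrf2 9mer peptide probe; 0% = neutral control wells and 100% = peptide positive control; higher means more block of Keap1 binding to Nrf2 peptide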)). Settings: Keap1 Kelch-Nrf2 peptide fluorescence polarization, 1536-well; at 9.4 µM; stronger effect = higher value.

Structure (SMILES)	inhibition
CCOP(=O)(Nc1cccc2ccccc12)OCC	inactive: 0.18%
COc1cc(C2NCCC3(OCCO3)C2(C)C)cc(OC)c1OC (stereo unspecified)	inactive: -4.53%
CCCOP(=S)(Nc1nc(N)cc(=O)[nH]1)OCCC	inactive: -2.93%
Nc1cccc2c([As](=O)(O)O)cccc12	inactive: -0.484%
Cc1ccc(NCCc2c([N+](=O)[O-])cc([N+](=O)[O-])cc2[N+](=O)[O-])cc1	inactive: -1.59%
Cc1cccc(OCC(=O)OC2CN3CCC2CC3)c1 (stereo unspecified)	inactive: -2.73%
O=[As](O)(c1cccc(O)c1)c1cccc(O)c1	inactive: -1.27%
CS(=O)(=O)c1ccc(Cl)c(NC(=O)COC(=O)C(O)(c2ccccc2)c2ccccc2)c1	inactive: 5.26%
O=[As](O)(O)c1cccnc1	inactive: 0.717%
COc1cc(C(=O)NCC2(N3CCOCC3)CCCCC2)cc(Cl)c1OC(C)C	inactive: 3.02%
O=C(OC1CN2CCC1CC2)c1ccc(Cl)cc1 (stereo unspecified)	inactive: -0.687%
CN(C(=O)Cc1ccc(Cl)c(Cl)c1)[C@H]1CC[C@@]2(CCCO2)C[C@@H]1N1CCCC1	inactive: 3.55%
O=[N+]([O-])c1ccc2c(c1)nnn2O	inactive: -6.98%
CN(C)C(=O)c1cc([N+](=O)[O-])cc2c1-c1c(cc([N+](=O)[O-])cc1[N+](=O)[O-])C2=O	inactive: -3.24%
CCOP1(=S)c2c(C)nn(CCC#N)c2N=C(c2ccc(F)cc2)N1C (stereo unspecified)	inactive: -2.54%
CN(C(=O)Cc1ccccc1)[C@@H]1CC[C@]2(CCCO2)C[C@H]1N1CCCC1	inactive: -15%
N#CCCN(C(=O)COC(=O)C(O)(c1ccccc1)c1ccccc1)c1ccc(F)cc1	inactive: 0.9%
NC(=O)Nc1ccc([As](=O)(O)O)cc1	inactive: -4.35%
O=C(O)COc1ccc([As](=O)(O)O)cc1[N+](=O)[O-]	inactive: -4.73%
Nc1ccccc1[As](=O)(O)c1ccccc1	inactive: 0.499%
CS(=O)(=O)c1cc([N+](=O)[O-])c2no[n+]([O-])c2c1	inactive: 3.97%
O=P(Nc1nccs1)(Oc1ccccc1)Oc1ccccc1	inactive: 2.43%
O=P(Nc1nccs1)(c1ccccc1)c1nc2ccccc2s1 (stereo unspecified)	inactive: 0.514%
CCOP1(=S)c2c(C)nn(CCC#N)c2N=C(c2ccccc2F)N1C (stereo unspecified)	inactive: -2.81%
O=[As](O)(c1cccs1)c1cccs1	inactive: -1.33%
Cc1ccc(OCC(=O)OC2CN3CCC2CC3)cc1 (stereo unspecified)	inactive: -0.111%

Structure (SMILES)	inhibition
NS(=O)(=O)c1cccc(NC(=O)COC(=O)C(O)(c2ccccc2)c2ccccc2)c1	inactive: 0.477%
O=P1(Nc2ccc(Br)cn2)COc2ccccc2OC1	inactive: 0.355%
Nc1cccc([As](=O)(O)c2ccccc2)c1	inactive: 3.83%
O=P1(Nc2ncccn2)COc2ccccc2OC1	inactive: -3.75%
CCCC1OP(=O)(Nc2ccccc2)OCC1CC (stereo unspecified)	inactive: 2.49%
O=C(/C=C/c1ccccc1)OC1CN2CCC1CC2 (stereo unspecified)	inactive: -3.7%
CN(C)C1(CNC(=O)c2ccc(S(C)(=O)=O)cc2)CCCCC1	inactive: 6.92%
Cc1ccc(C(=O)OC2CN3CCC2CC3)cc1 (stereo unspecified)	inactive: 0.587%
CC1CCC(C(C)C)C(OP(=O)(Nc2ccccn2)c2ccccc2)C1 (stereo unspecified)	inactive: -1.12%
Cc1nn(-c2ccccc2)c2c1P(=O)(N1CCOCC1)N(C)C(c1ccccc1)=N2 (stereo unspecified)	inactive: 1.72%
CC1(CBr)Cn2c(nc3ccccc3c2=O)S1 (stereo unspecified)	inactive: -3.11%
CN(C(=O)Cc1ccc(Cl)c(Cl)c1)[C@@H]1CCCC[C@H]1N1CCCC1	inactive: -7.87%
CC(C)/C=N\N=C(\N)N[N+](=O)[O-]	inactive: -4.39%
CC(C)(C)C(=O)NC(Sc1ncccn1)C(Cl)(Cl)Cl (stereo unspecified)	inactive: -1.76%
Clc1n[nH]nc1-c1nn[nH][15n]1	inactive: -4.37%
CCOP(=O)(Nc1ccc(C)cn1)OCC	inactive: -7.02%
CCOP(=O)(NC(=NC(C)c1ccccc1)NC(C)c1ccccc1)OCC (stereo unspecified)	inactive: -0.379%
CCC1=CC2Cc3nc4ccc(Cl)cc4c(N)c3C(C1)C2 (stereo unspecified)	inactive: -2.79%
O=P1(Nc2ccccn2)COc2ccccc2OC1	inactive: 3.73%
CCC(C)N(CC(C)C)C(=S)SC(NC(C)=O)C(Cl)(Cl)Cl (stereo unspecified)	inactive: -0.342%
CCOC(=O)c1ccc(NC(=O)C(C)(CCl)SC)cc1 (stereo unspecified)	inactive: -2.97%
O=C(OC1CN2CCC1CC2)c1cccc([N+](=O)[O-])c1 (stereo unspecified)	inactive: -2.37%
O=C(Nc1ccncc1[N+](=O)[O-])c1ccc([N+](=O)[O-])cc1[N+](=O)[O-]	inactive: -0.211%
O=C(COc1ccccc1)OC1CN2CCC1CC2 (stereo unspecified)	inactive: -5.12%
COP1(=S)c2c(C)nn(CCC#N)c2N=C(c2ccc(F)cc2)N1C (stereo unspecified)	inactive: -3.6%
O=[N+]([O-])c1ccc(Nc2ccc(Oc3ccc([N+](=O)[O-])cc3[N+](=O)[O-])cc2)c([N+](=O)[O-])c1	inactive: -1.57%

Structure (SMILES)	inhibition
Cc1cc(SC(NC=O)C(Cl)(Cl)Cl)ncn1 (stereo unspecified)	inactive: -4.07%
O=P(Nc1ccccn1)(c1cccc2ccccc12)c1cccc2ccccc12	inactive: 1.82%
CCOC(=O)Nc1cccc([As](=O)(O)O)c1	inactive: 0.329%
Cc1cc(SC(NC(=O)c2ccccc2)C(Cl)(Cl)Cl)nc(C(C)C)n1 (stereo unspecified)	inactive: -6.9%
CCCCOc1ccc(C(=O)NCC2(N3CCCCC3)CCCCC2)cc1OC	inactive: -2.75%
CC1CCNP(=O)(N(CCCl)CCCl)O1 (stereo unspecified)	inactive: -0.999%
CCOC(=O)Nc1ccc([As](=O)(O)O)c(O)c1	inactive: -0.339%
O=[N+]([O-])c1cc([N+](=O)[O-])c(-c2ccn[nH]2)s1	inactive: 4.12%
CC(C)NC(=O)NP(=O)(Oc1ccccc1)Oc1ccccc1	inactive: 2.71%
O=C(OC1CN2CCC1CC2)c1cccc2[nH]cnc12 (stereo unspecified)	inactive: 3.18%
CCN(CC)C(=S)SC(NC=O)C(Cl)(Cl)Cl (stereo unspecified)	inactive: -1.87%
COC(=O)C1(C)COP(=O)(N2CCCCCC2)OC1 (stereo unspecified)	inactive: -1.47%
CC(C)c1ccc(OP(=O)(Nc2ccccn2)Oc2ccccc2F)cc1 (stereo unspecified)	inactive: 5.72%
ClCCSc1nnc(-c2cccnc2)o1	inactive: -1.85%
Cc1ccc2nc3c(c(C)c2c1)CC(C(Cl)Cl)S3 (stereo unspecified)	inactive: -1.09%
Cc1ccc(OP(=O)(Nc2ccc([N+](=O)[O-])cn2)Oc2ccc(C)cc2)cc1	inactive: -1.39%
O=[N+]([O-])c1ccc(-c2cc([N+](=O)[O-])c(O)c([N+](=O)[O-])c2)cc1	inactive: -4.07%
COc1cc(C(=O)NCC2(N3CCOCC3)CCCCC2)ccc1OCC(C)C	inactive: -1.59%
C[As](=O)(O)c1cccc(C(=O)O)c1	inactive: -4.42%
O=[As](O)(c1ccc(O)cc1)c1ccccc1O	inactive: -0.501%
COc1ccc(N/C(=N/P(=O)(N2CCOCC2)N2CCOCC2)N2CCOCC2)cc1	inactive: -5.45%
O=[N+]([O-])c1cc(Oc2ccc([N+](=O)[O-])cc2C(F)(F)F)cc([N+](=O)[O-])c1	inactive: 3.6%
COc1cc(I)ccc1[As](=O)(O)O	inactive: 1.98%
COc1ccc2nc(NP(=O)(c3ccccc3)c3ccccc3)sc2c1	inactive: -0.813%
O=P1(N(CCCl)CCCl)OCCCN1CCCl (stereo unspecified)	inactive: -3.11%
O=P1(N(CCCl)CCCl)Nc2ccccc2N1	inactive: -3.66%

Structure (SMILES)	inhibition
Cc1cc(=O)[nH]c(N[N+](=O)[O-])n1	inactive: -6.98%
O=C(OC1CN2CCC1CC2)C12CC3CC(CC(C3)C1)C2 (stereo unspecified)	inactive: -1.44%
Cc1c2c(nc3ccccc13)SC(C(Cl)Cl)C2 (stereo unspecified)	inactive: 2.02%
Nc1cc(N)c2nonc2c1[N+](=O)[O-]	inactive: 2.55%
CC(C)CC(=O)NC(Sc1ccc(Cl)cc1)C(Cl)(Cl)Cl (stereo unspecified)	inactive: 1.31%
O=C(NC(Sc1ccncn1)C(Cl)(Cl)Cl)c1ccccc1 (stereo unspecified)	inactive: 3.57%
Oc1ccccc1CNc1ccccn1	inactive: 0.899%
COc1ccccc1OP(=O)(Nc1ccc(C)cn1)Oc1ccccc1OC	inactive: -0.759%
CN1CCCC(OC(=O)C(c2ccccc2)c2ccccc2)C1 (stereo unspecified)	inactive: -6.68%
Clc1ccc(Cl)c(NC2=NCC(CBr)S2)c1 (stereo unspecified)	inactive: -3.65%
NC(=O)c1cc([N+](=O)[O-])cc([N+](=O)[O-])c1N	inactive: -4.63%
Cc1ccc(N/C(=N/P(=O)(N2CCOCC2)N2CCOCC2)N2CCOCC2)cc1	inactive: -5.51%
CN(C(=O)Cc1ccc(Cl)c(Cl)c1)[C@H]1CCCC[C@H]1N1CCCC1	inactive: -2.3%
CCN(N=Nc1nonc1N)c1nonc1N	inactive: 3.43%
Nc1cccc2ccc([As](=O)(O)O)cc12	inactive: -1.34%
CN(C(=O)Cc1ccc(Cl)c(Cl)c1)[C@H]1CCCC[C@@H]1N1CCCC1	inactive: -2.74%
Cc1ccc(NP(=O)(Oc2ccccc2F)Oc2ccccc2F)nc1	inactive: -5.4%
Cc1cc(SC(NC(=O)c2ccc(F)cc2)C(Cl)(Cl)Cl)ncn1 (stereo unspecified)	inactive: -1.13%
CCOP(=O)(Nc1ccccc1)OCC	inactive: -4.59%
CCCC1OP(N)(=O)OCC1CC (stereo unspecified)	inactive: -0.995%
CC(=O)Nc1ccc([As](=O)(O)O)cc1	inactive: 0.322%
O=C(O)c1ccccc1[As](=O)(O)O	inactive: -6.39%
O=P(Nc1nc2ccc(Cl)cc2s1)(c1ccccc1)c1ccccc1	inactive: -1.1%
